{"source": "paper PMC7032087", "about": "(Asian Journal of Pharmaceutical Sciences, 2016)", "assay": "Pharmacokinetic study in SD rats after oral administration", "type": "in vivo", "settings": "cephalexin 50 mg/kg p.o. without and with OPC 15 mg/kg", "data": [{"smiles": "CC1=C(C(=O)O)N2C(=O)[C@@H](NC(=O)[C@H](N)c3ccccc3)[C@H]2SC1", "note": "[Cephalexin]", "values": [{"measurement": "difference between pharmacokinetic parameters of cephalexin without and with OPC", "result": "no significant differences"}]}]}
